The record followed here is publication PMC6030506 (Biochemistry, 2018).

The target of the test is T1, HDAC8 (Homo sapiens, UniProt Q9BY41).
T1 sequence (Q9BY41 1-377): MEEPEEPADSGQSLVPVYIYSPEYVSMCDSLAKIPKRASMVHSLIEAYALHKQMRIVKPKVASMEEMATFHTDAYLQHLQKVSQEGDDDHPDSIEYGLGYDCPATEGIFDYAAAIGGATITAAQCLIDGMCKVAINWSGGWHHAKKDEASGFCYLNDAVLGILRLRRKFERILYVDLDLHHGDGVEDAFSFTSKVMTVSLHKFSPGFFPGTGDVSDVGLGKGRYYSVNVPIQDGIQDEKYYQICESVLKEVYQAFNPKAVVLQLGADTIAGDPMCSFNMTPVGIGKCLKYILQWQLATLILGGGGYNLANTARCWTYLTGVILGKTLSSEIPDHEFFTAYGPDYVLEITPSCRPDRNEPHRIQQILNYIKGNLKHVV
As to the kind of experiment: ITC. The format is binding. As to conditions: […] HEPES pH […] KCl, […] glycerol, […] TCEP.

As to `O=C(CCCCCCNC(=O)c1cnc(N(c2ccccc2)c2ccccc2)nc1)NO` [Ricolinostat], the Kd entry is “the aliphatic hydroxamate inhibitor Ricolinostat”.
